Legend:
[1] = biological target: Tumorous imaginal disc 1 (Tid1), human (human (endogenous in Jurkat and Jcam)); assay: proximity ligation; in situ PLA (DuoLink) on fixed, permeabilised Jurkat cells (Lck-expressing) with primary antibodies to CRIF1 and Tid1; spots counted per cell
[2] = biological target: Tumorous imaginal disc 1 (Tid1), human (human (endogenous in Jurkat and Jcam)); assay: proximity ligation; in situ PLA (DuoLink) on fixed, permeabilised Jcam cells (Lck-deficient) with primary antibodies to CRIF1 and Tid1; spots counted per cell

Substance: CR6-interacting factor 1 (CRIF1), human (from UniProt Q8TAE8 1-222) (natural protein)
- PLA spots (CRIF1-Tid1 complexes) per cell [1]: 5.3 per cell
- PLA spots (CRIF1-Tid1 complexes) per cell [2]: 9.2 per cell

Source: article PMC4515320
